Measured values from US11730714B2, “Compounds for the treatment of neuromuscular disorders” (NMD PHARMA A/S, priority 2017, dated 2023).

Protein sequences, listed by entry. Tags and fused reporters are not part of them.
UniProt P35524, whole entry: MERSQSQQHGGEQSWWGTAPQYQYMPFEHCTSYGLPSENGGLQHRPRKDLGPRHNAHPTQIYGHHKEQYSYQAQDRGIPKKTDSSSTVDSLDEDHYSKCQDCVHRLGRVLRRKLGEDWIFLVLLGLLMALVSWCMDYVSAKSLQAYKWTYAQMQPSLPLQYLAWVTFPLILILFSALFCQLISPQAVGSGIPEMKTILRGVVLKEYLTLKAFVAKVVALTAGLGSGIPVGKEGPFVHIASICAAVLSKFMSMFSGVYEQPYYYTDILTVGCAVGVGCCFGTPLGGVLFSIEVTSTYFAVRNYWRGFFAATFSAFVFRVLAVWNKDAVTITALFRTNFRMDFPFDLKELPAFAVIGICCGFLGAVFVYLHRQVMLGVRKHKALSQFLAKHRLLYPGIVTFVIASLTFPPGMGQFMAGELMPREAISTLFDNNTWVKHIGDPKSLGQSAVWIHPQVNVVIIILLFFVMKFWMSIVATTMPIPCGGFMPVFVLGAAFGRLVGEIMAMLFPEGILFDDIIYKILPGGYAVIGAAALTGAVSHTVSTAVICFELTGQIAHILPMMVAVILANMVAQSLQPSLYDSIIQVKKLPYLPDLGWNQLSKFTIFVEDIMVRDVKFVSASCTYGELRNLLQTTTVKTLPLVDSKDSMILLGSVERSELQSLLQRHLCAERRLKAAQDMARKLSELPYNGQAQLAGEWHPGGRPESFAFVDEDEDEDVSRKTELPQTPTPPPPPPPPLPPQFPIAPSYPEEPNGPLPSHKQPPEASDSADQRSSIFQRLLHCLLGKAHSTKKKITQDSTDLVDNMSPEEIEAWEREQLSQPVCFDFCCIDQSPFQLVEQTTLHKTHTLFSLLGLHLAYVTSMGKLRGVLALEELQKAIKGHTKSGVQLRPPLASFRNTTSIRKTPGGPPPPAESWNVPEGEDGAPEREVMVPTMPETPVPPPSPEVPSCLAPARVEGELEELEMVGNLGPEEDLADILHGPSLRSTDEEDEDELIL

Target: CIC-1 channels (Rattus norvegicus, UniProt P35524)
Assay: Electrophysiological measurement of compound inhibition of CIC-1 in rat muscle (Gm, EC50)
Details: read-out: EC50 (inhibition of ClC-1 ion channel, Gm); rat soleus muscle fibres, three micro-electrode Gm measurement

EC50: > 80 µM
SMILES: CC(C)[C@@H](Oc1ccc(Br)cc1F)C(=O)O [Compound A-4, (2R)-2-(4-bromo-2-fluoraphenoxy)-3-methylbutanoic acid]
